# Measurements from patent publication US10918633B2, “Method of treating coronavirus” (MyMD Pharmaceuticals, Inc., priority 2015, dated 2021).
# The chains behind the UniProt entries cited, without tags or fusion partners.
# UniProt P21397, whole entry, species assumed: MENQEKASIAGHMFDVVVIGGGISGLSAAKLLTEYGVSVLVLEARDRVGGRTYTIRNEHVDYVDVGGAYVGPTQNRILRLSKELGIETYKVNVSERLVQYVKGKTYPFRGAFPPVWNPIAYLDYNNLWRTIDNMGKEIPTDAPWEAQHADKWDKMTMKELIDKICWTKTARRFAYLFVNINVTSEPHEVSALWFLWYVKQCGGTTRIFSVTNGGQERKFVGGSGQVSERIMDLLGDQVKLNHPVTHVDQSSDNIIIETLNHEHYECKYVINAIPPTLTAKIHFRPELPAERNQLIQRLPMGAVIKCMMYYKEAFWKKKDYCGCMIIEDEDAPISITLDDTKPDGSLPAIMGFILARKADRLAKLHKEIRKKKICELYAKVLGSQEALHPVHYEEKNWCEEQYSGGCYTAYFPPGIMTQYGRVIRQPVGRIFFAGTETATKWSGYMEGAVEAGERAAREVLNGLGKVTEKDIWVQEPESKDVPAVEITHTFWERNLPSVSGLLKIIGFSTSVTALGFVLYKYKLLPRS
# Molecular target: T1, MAO-A (Homo sapiens, UniProt P21397)
# T1 construct: purchased
# Test: MAO-Glo luminescent assay, MAO-A inhibition
# Format: biochemical
# Conditions: compared with myosmine, anatabine, anabasine, nornicotine; FIG. 1
# Source text: This example describes experiments for determining monoamine oxidase (MAO) inhibition for isomyosmine and other alkaloids. MAOs are enzymes located on the outer membrane of mitochondria and are involved in the catabolism of monoamine neurotransmitters. There are two well-characterized isoenzymes: MAO-A, which predominantly catabolizes serotonin and norepinephrine, and MAO-B, which preferentially catabolizes benzylamine and phenylethylamine. Dopamine and tyramine are metabolized by both isoforms.
# To detect the activity of MAO, a luminescent method (MAO-Glo Assay kit, from Promega, Cat #V1401) was used. In this method, a MAO substrate (a derivative of beetle luciferin provided in the kit) is mixed with the compound to be tested (in this case, myosmine and control compounds). Then, the MAO enzymes (either A or B, purchased separately) are added to the mixture and incubated with the reaction for 1 hour at room temperature. The MAO enzymes, if not inhibited by the test compound, will convert the substrate into methyl ester luciferin. Finally, a luciferin detection reagent (provided by the kit) is added (20 minutes at room temperature) to stop the MAO reaction and convert methyl ester luciferin into D-luciferin. […] The luminescent signal is measured and recorded using a luminometer. […]
structure (smiles),measurement,value
"C#CCN(C)CCCOc1ccc(Cl)cc1Cl [clorgyline, reference compound]","inhibition of the enzymatic activity of MAO-A (in words, curve position)",greatly shifted leftward
